Experimental findings from patent US20120107317A1 (UNIVERSITY OF HONG KONG, published 2012) are described below.

Amino acid sequences for entries named in this document (tags omitted).
UniProt P51617, whole entry: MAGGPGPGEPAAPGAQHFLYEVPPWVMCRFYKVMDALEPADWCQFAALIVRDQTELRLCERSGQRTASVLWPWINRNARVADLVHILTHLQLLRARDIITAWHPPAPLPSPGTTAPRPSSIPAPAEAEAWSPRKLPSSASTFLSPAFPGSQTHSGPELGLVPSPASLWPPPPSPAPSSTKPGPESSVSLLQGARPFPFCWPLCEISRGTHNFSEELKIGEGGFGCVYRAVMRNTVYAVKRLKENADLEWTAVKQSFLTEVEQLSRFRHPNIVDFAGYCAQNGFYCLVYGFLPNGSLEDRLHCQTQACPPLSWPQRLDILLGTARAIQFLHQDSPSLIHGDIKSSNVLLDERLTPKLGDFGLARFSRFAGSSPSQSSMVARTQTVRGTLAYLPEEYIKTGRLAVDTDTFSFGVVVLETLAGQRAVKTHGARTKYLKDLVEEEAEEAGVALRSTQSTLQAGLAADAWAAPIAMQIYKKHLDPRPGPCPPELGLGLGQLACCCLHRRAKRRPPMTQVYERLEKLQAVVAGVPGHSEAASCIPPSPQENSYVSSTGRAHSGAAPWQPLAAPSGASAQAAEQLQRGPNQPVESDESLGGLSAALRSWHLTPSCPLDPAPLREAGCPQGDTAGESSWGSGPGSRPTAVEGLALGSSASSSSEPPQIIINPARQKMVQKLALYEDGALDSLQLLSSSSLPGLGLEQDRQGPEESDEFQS

This assay addresses T1, IRAK1 (endogenous protein of primary human blood macrophages) (human, UniProt P51617).
T1 construct: Endogenous protein in PBMac lysates
As to the kind of experiment: co-immunoprecipitation with anti-c-Myc antibody from PBMac lysates, Western blot. Here is the method: Total proteins (200 μg) were extracted from PBMac by IP buffer (10 mM Tris [pH7.4], 1 mM EDTA, 1 mM EGTA, 150 mM NaCl, 0.5% NP-40, 1% Triton X-100, inhibitor cocktails of proteases and phosphatases), and were incubated with 1μg primary antibodies against IκBα(Santa Cruz Biotechnology, USA) or c-Myc (Millipore, USA) for 2 hours at 4° C. and then with 20 μl Protein A/G agarose beads (Santa Cruz Biotechnology, USA) for 1 hour at 4° C. The immunoprecipitates were then washed 6 times with IP buffer. Cytoplasmic and nuclear proteins were extracted from PBMac as previously described (Cheung et al., 2005; Lee et al., 2005). Immunoprecipitated, cytoplasmic (50 μg) or nuclear proteins (10 μg) were analyzed by Western Blot as in our previous reports (Cheung et al., 2005; Lee et al., 2005).
For orientation: Immunoblotting shows a protein as a band on a membrane.

B1: c-Myc (endogenous protein of primary human blood macrophages) (other)
chain: MPLNVSFTNRNYDLDYDSVQPYFYCDEEENFYQQQQQSELQPPAPSEDIWKKFELLPTPPLSPSRRSGLCSPSYVAVTPFSLRGDNDGGGGSFSTADQLEMVTELLGGDMVNQSFICDPDDETFIKNIIIQDCMWSGFSAAAKLVSEKLASYQAARKDSGSPNPARGHSVCSTSSLYLQDLSAAASECIDPSVVFPYPLNDSSSPKSCASQDSSAFSPSSDSLLSSTESSPQGSPEPLVLHEETPPTTSSDSEEEQEDEEEIDVVSVEKRQAPGKRSESGSPSAGGHSKPPHSPLVLKRCHVSTHQHNYAAPPSTRKDYPAAKRVKLDSVRVLRQISNNRKCTSPRSSDTEENVKRRTHNVLERQRRNELKRSFFALRDQIPELENNEKAPKVVILKKATAYILSVQAEEQKLISEEDLLRKRREQLKHKLEQLRNSCA
notes: Endogenous c-Myc in lysates of primary human blood macrophages (PBMac), with or without BCG treatment; also called cytoplasmic c-Myc
As to B1, the binding result is “no binding”.
